From the supplement of paper PMC9135407 come the findings set out here.

Where a name gives a salt, the structure may show the parent alone. Most of the hits are listed elsewhere, so they are rarer here than in the full data.

The experiment relates to primary human hepatic stellate cells (donor 1). Kind of experiment: COL1A1 mRNA fold change vs DMSO (normalised to PSMB2); higher = more COL1A1 expression, active = hit call of the paper. The settings on record: 33.3333 µM; 48 h. As to the method: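 Secondary qRT-PCR screen in primary human HSCs (donor 1), 384-well plates, with compounds dispensed in quadruplicate and incubated for 48 h. Cells-to-CT lysates were used for multiplexed TaqMan qPCR of ACTA2 or COL1A1 with PSMB2 as reference. Fold changes versus DMSO come from a linear model (Ct_gene ~ Ct_PSMB2 + plate + chemical). A hit is defined as COL1A1 and ACTA2 FC <0.5 (FDR <0.05) with PSMB2 between 0.2 and 2.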
For the compound `N/C(=N/CCc1ccc(I)cc1)SCCCc1cnc[nH]1` [Iodophenpropit dihydrobromide], the “COL1A1 mRNA fold change” value was inactive: 0.0932.
